Literature values as cited in PMC3646888, “TRAM-34, a Putatively Selective Blocker of Intermediate-Conductance, Calcium-Activated Potassium Channels, Inhibits Cytochrome P450 Activity” (PLoS ONE, 2013).
pKd: −log10 of the molar value.

Key:
IKCa channel = conditions: read-out: Kd, IKCa channel; cited from earlier work
[1] = test system: other potassium channels (such as the Kv1.2 channel); set-up: method as in PMID 10884437; conditions: cited from earlier work

**Q.** Which results are given for Clc1ccccc1C(c1ccccc1)(c1ccccc1)n1cccn1 [TRAM-34, 1-[(2-chlorophenyl)diphenylmethyl]-1H-pyrazole]?
**A.** pKd (IKCa channel): 7.70; Fold less potent on other potassium channels vs. the IKCa channel [1]: up to 200 fold
